Measurements from PubChem BioAssay AID1527 (The Scripps Research Institute Molecular Screening Center, 2009).
The list shows a part of the results, in another mix than the full data. Some tests of the compounds listed are not included; inactive here does not mean inactive elsewhere. Calls of active or inactive are those of the source.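 The calls were made as follows: active = inhibition above the mean of all tested compounds plus 3 SD, cutoff set per screening run (cut at about 7.5% in these data); inactive = the rest.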

Tested on: VIM-2 metallo-beta-lactamase (Pseudomonas aeruginosa)
Test: inhibition of VIM-2 nitrocefin hydrolysis – biochemical, epi-absorbance readout, Pseudomonas aeruginosa enzyme, primary screen (AID 1527);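 also: red hydrolysis product quenches plate fluorescence so inhibitors raise well fluorescence; 0% = enzyme with DMSO and 100% = DMSO without enzyme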
Conditions: purified VIM-2, nitrocefin hydrolysis, epi-absorbance fluorescence; at 5.6 µM; stronger effect = higher value

Row | Structure (SMILES) | inhibition
1 | COc1cccc(C(=O)NCC2(N3CCCCC3)CCCCC2)c1 | inactive: -3.1%
2 | COc1ccc(Cl)cc1C(=O)NCC1(N(C)C)CCCCC1 | inactive: 1.27%
3 | O=C(NCC1(N2CCCCC2)CCCCC1)c1cccc(Cl)c1 | inactive: -2%
4 | CN(C)C1(CNC(=O)c2ccc(Br)cc2)CCCCC1 | inactive: -3.22%
5 | COc1cc(C(=O)NCC2(N(C)C)CCCCC2)c([N+](=O)[O-])cc1OC | inactive: 0.69%
6 | COc1ccc(Br)c(C(=O)NCC2(N3CCCCC3)CCCCC2)c1 | inactive: 0.58%
7 | CN(C)c1cccc(C(=O)NCC2(N(C)C)CCCCC2)c1 | inactive: -1.16%
8 | CC(C)Oc1ccc(C(=O)NCC2(N(C)C)CCCCC2)cc1 | inactive: 1.09%
9 | O=C(OC1CN2CCC1CC2)C(CO)(c1ccccc1)c1ccccc1 (centres undefined) | inactive: -3.44%
10 | CC(C)N1C(=O)CC2(CCN(CCOC(=O)C(O)(c3ccccc3)c3ccccc3)CC2)C1=O | inactive: 0.66%
11 | CCN(CC)CC(C)C(C)OC(=O)C(O)(c1ccccc1)c1ccccc1 (centres undefined) | inactive: -2.41%
12 | COc1cc(SC)ccc1C(=O)NCC1(N(C)C)CCCCC1 | inactive: -1.25%
13 | Cc1ccc(C(=O)NCC2(N3CCCCC3)CCCCC2)cc1 | inactive: -0.39%
14 | O=C(NCC1(N2CCCCC2)CCCCC1)c1cc([N+](=O)[O-])ccc1Cl | inactive: 0.49%
15 | CN1[C@@H]2CC[C@H]1CC(OC(=O)C(O)(c1ccccc1)c1ccccc1)C2 (some centres undefined) | inactive: -3.93%
16 | C=CCN1CCN(CCOC(=O)C(O)(c2ccccc2)c2ccccc2)CC1 | inactive: -4.79%
17 | O=C(NCC1(N2CCCCC2)CCCCC1)c1cc(F)c(F)cc1Cl | inactive: -2.81%
18 | Cc1cc(C(=O)NCC2(N3CCCCC3)CCCCC2)ccc1[N+](=O)[O-] | inactive: -3.59%
19 | CCN1CCCC(OC(=O)C2(O)c3ccccc3C=Cc3ccccc32)C1 (centres undefined) | inactive: -0.06%
20 | O=C(NCC1(N2CCCCC2)CCCCC1)c1cccc(Br)c1 | inactive: -0.31%
21 | COc1ccc(C(=O)NCC2(N(C)C)CCCCC2)cc1 | inactive: 0.69%
22 | Cc1ccccc1C(=O)NCC1(N2CCCCC2)CCCCC1 | inactive: -1.6%
23 | CN(C)C1CCCC1OC(=O)C(O)(c1ccccc1)c1ccccc1 (centres undefined) | inactive: 0.16%
24 | CN(C)c1ccc(C(=O)NCC2(N(C)C)CCCCC2)cc1 | inactive: -2.32%
